# Test results from PMC5799093, “Proceedings of Réanimation 2018, the French Intensive Care Society International Congress” (Annals of Intensive Care, 2018).
# Experiment: Post hoc analysis of EPO-ACR-02 trial: kidney injury after OHCA (P-157)
substance,measurement,setting,value
erythropoietin,patients with AKI (KDIGO) at the 48th hour,"5 i.v. injections of 40,000 units 12 h apart, control 54.4%, p = 0.74",52.8%
same,patients with glomerular filtration rate lower than 75 mL min 1.73 m^2 at day-28,"control 14.8%, p = 0.25",28%
same,hematopoietic effects or serious adverse events versus control,in vivo,no significant difference
same,proportion of patients with AKI through ICU discharge versus control,in vivo,no significant difference
